# Apparent affinities of Ab-95 variants for a coronavirus HR2 peptide

Target peptide (SARS-CoV-2 spike, HR2 region): PDVDLGDISGINAS

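Phage display of a naive human antibody library on the peptide gave the parent. Library AAYL52 holds single substitutions and randomly drawn double and triple substitutions in the CDRs. Affinity was read by AlphaSeq, a pooled yeast mating assay with surface-displayed partners. Pairs that bind mate more often; barcode pairs of the diploids are counted by sequencing. Each replicate has its own calibration line, from reference interactions of the BCL2 family. Each pool was mated in three replicate cultures.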

Parent: Ab-95, a human scFv built as VH, three GGGGS repeats, VL. Only the CDRs of the light chain vary.
VH: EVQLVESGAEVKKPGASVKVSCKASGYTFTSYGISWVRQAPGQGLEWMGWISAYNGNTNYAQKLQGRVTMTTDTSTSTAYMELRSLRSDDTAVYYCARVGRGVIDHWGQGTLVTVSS
VL: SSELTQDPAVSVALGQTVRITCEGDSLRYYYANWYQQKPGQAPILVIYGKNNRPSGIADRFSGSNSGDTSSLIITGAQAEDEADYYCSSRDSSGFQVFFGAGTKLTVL

Substitutions are numbered in sequence along the VL above, starting at 1 (not Kabat).
Scale: log10 of Kd in nM, estimated from mating counts; low values are strong binders.
A mean of the replicates is given; it leaves out those without a signal.
"nd" marks a missing value. The strain was present, yet no cells mated with the target were sequenced in any replicate, which points to weak or no binding.
Entries are sorted by rising average, undetected variants last.
In this assay the parent's reference entry averaged 2.31; its copy inside this library read 2.25.
As a blank, each scFv also met three strains without target: over library AAYL52, 28% of these pairings were detected, typically at 3.91 and seldom below 2.90. For each scFv, signals with the empty controls are counted beside the result.

Y30S D91H G94N: 1.42 (3 of 3 replicates; controls 1 of 9).
E23K N52I: 1.50 (3 of 3 replicates; controls 3 of 9).
Y31P N51H: 1.59 (3 of 3 replicates; controls 1 of 9).
Y30D P54A: 1.70 (3 of 3 replicates; controls 3 of 9).
R28H Y29A F95E: 2.05 (3 of 3 replicates; controls 3 of 9).
R28P D91K Q96M: 2.27 (3 of 3 replicates; controls 3 of 9).
D25I Y29N K50I: 2.28 (3 of 3 replicates; controls 2 of 9).
S26P Y29S N33C: 2.47 (3 of 3 replicates; controls 5 of 9).
D25L Y30K S89G: 2.74 (3 of 3 replicates; controls 2 of 9).
A32P N52H S88C: 2.80 (3 of 3 replicates; controls 2 of 9).
S26D K50G V97R: 2.95 (3 of 3 replicates; controls 8 of 9).
R28V Y31M F95M: 3.05 (3 of 3 replicates; controls 4 of 9).
K50S V97W: 3.25 (3 of 3 replicates; controls 3 of 9).
P54C F95L Q96H: 3.32 (3 of 3 replicates; controls 4 of 9).
E23V R90T F98I: 3.36 (3 of 3 replicates; controls 0 of 9).
S26R L27D: 3.36 (2 of 3 replicates; controls 3 of 9).
G24K R90E S93R: 3.39 (2 of 3 replicates; controls 4 of 9).
L27P S88R G94E: 3.43 (1 of 3 replicates; controls 3 of 9).
N52F D91T F95A: 3.43 (3 of 3 replicates; controls 4 of 9).
G24E S88C Q96H: 3.50 (2 of 3 replicates; controls 3 of 9).
Y29L K50G P54D: 3.52 (1 of 3 replicates; controls 1 of 9).
Y31E S55Q R90W: 3.59 (3 of 3 replicates; controls 0 of 9).
R28D N51Q S92C: 3.61 (3 of 3 replicates; controls 0 of 9).
R53N G94S Q96P: 3.67 (1 of 3 replicates; controls 3 of 9).
P54K S92E G94C: 3.78 (1 of 3 replicates; controls 1 of 9).
S26K K50A S55F: 3.79 (1 of 3 replicates; controls 3 of 9).
E23V G24P R53D: 3.86 (1 of 3 replicates; controls 1 of 9).
K50S P54G S89D: 3.93 (3 of 3 replicates; controls 3 of 9).
L27A Y29Q N33A: 4.08 (1 of 3 replicates; controls 2 of 9).
P54L S93D F98I: 4.11 (2 of 3 replicates; controls 3 of 9).
N33S N52R R53Q: 4.21 (2 of 3 replicates; controls 7 of 9).
P54H F95R V97N: 4.22 (3 of 3 replicates; controls 2 of 9).
G49K S55Y S89C: 4.55 (1 of 3 replicates; controls 2 of 9).
E23R S26K Y29V: 4.58 (2 of 3 replicates; controls 6 of 9).
R28F Y29I K50E: 4.72 (2 of 3 replicates; controls 1 of 9).
D25E S26Q S89K: 4.77 (1 of 3 replicates; controls 2 of 9).
Y30P S93L G94C: 4.81 (1 of 3 replicates; controls 3 of 9).
E23W N33D G49I: 4.86 (3 of 3 replicates; controls 2 of 9).
E23K K50R G94H: 5.17 (1 of 3 replicates; controls 2 of 9).
G24P L27T Q96N: 5.63 (1 of 3 replicates; controls 2 of 9).
N51I D91H S93N: nd (0 of 3 replicates; controls 0 of 9).
N52P S89F Q96P: nd (0 of 3 replicates; controls 0 of 9).
Y30W K50Q R90S: nd (0 of 3 replicates; controls 4 of 9).
Y30I G49Q S89F: nd (0 of 3 replicates; controls 2 of 9).
N33P N51T R90Y: nd (0 of 3 replicates; controls 1 of 9).
S26K N51W P54L: nd (0 of 3 replicates; controls 2 of 9).
Y31I G49Y N51P: nd (0 of 3 replicates; controls 0 of 9).
R28F G49H N51C: nd (0 of 3 replicates; controls 2 of 9).
D25K R53E V97I: nd (0 of 3 replicates; controls 2 of 9).

Picked from the list: the 5 lowest averages where every replicate gave a value.

{"changes": "Y30S D91H G94N", "log10 Kd (nM), mean": "1.42", "replicates with signal": "3 of 3", "signal with controls": "1 of 9"}
{"changes": "E23K N52I", "log10 Kd (nM), mean": "1.50", "replicates with signal": "3 of 3", "signal with controls": "3 of 9"}
{"changes": "Y31P N51H", "log10 Kd (nM), mean": "1.59", "replicates with signal": "3 of 3", "signal with controls": "1 of 9"}
{"changes": "Y30D P54A", "log10 Kd (nM), mean": "1.70", "replicates with signal": "3 of 3", "signal with controls": "3 of 9"}
{"changes": "R28H Y29A F95E", "log10 Kd (nM), mean": "2.05", "replicates with signal": "3 of 3", "signal with controls": "3 of 9"}

The measurements come from Engelhart et al. 2022 (doi:10.1038/s41597-022-01779-4) through the FLAb antibody collection.